Literature values as cited in US7041851B2, “Fluorinated phenyl thiophenyl derivatives and their use for imaging serotonin transporters” (The Trustees of the University of Pennsylvania, priority 2002, dated 2006).

Sequences of proteins named here, by UniProt entry; tags and fusion partners are left off.
UniProt P31645, whole entry, species assumed: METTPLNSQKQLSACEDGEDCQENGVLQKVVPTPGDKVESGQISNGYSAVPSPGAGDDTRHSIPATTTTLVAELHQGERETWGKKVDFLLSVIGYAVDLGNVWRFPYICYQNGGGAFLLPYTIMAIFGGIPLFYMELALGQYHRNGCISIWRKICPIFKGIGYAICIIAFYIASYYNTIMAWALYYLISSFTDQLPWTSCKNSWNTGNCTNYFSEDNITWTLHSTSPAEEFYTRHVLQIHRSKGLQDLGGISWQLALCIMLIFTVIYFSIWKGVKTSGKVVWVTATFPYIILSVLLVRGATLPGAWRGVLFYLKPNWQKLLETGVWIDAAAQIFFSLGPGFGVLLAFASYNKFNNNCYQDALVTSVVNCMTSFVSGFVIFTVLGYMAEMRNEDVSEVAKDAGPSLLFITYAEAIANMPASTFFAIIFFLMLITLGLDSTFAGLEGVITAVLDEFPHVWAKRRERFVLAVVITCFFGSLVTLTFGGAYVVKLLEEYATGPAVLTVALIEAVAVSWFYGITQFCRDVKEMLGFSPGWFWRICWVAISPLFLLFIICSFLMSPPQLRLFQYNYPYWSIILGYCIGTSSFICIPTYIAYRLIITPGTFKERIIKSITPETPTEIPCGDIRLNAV

Molecular target: SERT (Homo sapiens, UniProt P31645)
Settings: Oya et al. 2001; Huang et al. 2001b; read-out: Ki SERT (literature); cited from earlier work

CN(C)Cc1ccccc1Sc1ccc(F)cc1N [Compound 12, N,N-Dimethyl-2-(2-amino-4-fluorophenylthio)benzylamine]
Ki: 4.8 nM
